Results published in ChEMBL document CHEMBL1142723, “Discovery of a potent, selective, and efficacious class of reversible alpha-ketoheterocycle inhibitors of fatty acid amide hydrolase effective as analgesics” (J Med Chem, 2005).
pKi: −log10 of the molar value.

The chains behind the UniProt entries cited, without tags or fusion partners.
UniProt P97612, whole entry: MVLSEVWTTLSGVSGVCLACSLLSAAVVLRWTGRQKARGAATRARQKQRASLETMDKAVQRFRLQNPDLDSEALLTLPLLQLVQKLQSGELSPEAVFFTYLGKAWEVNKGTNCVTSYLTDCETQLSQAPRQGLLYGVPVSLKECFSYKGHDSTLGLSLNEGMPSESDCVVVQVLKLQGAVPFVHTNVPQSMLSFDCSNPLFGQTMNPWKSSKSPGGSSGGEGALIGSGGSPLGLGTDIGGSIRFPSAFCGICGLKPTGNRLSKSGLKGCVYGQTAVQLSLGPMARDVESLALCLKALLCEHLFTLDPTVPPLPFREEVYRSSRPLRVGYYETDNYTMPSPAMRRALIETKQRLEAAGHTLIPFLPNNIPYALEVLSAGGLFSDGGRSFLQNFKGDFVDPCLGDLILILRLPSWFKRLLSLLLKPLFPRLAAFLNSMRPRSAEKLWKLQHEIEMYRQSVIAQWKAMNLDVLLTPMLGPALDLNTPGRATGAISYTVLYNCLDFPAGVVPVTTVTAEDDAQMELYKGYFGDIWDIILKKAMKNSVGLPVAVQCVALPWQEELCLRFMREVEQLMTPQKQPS

Target: Fatty-acid amide hydrolase 1 (Rattus norvegicus, UniProt P97612)
Assay: Inhibitory constant determined against recombinant Fatty-acid amide hydrolase from rat expressed in Escherichia coli

- pKi: 6.85
Structure (SMILES): O=C(CCCCCCc1ccccc1)c1ncc(-c2ccccc2)o1
